# In US20240158392A1 (Janssen Biotech, Inc., priority 2021, published 2024):
# By UniProt entry, the sequences of proteins in these tests, tags left out.
# UniProt Q9H0K1, whole entry: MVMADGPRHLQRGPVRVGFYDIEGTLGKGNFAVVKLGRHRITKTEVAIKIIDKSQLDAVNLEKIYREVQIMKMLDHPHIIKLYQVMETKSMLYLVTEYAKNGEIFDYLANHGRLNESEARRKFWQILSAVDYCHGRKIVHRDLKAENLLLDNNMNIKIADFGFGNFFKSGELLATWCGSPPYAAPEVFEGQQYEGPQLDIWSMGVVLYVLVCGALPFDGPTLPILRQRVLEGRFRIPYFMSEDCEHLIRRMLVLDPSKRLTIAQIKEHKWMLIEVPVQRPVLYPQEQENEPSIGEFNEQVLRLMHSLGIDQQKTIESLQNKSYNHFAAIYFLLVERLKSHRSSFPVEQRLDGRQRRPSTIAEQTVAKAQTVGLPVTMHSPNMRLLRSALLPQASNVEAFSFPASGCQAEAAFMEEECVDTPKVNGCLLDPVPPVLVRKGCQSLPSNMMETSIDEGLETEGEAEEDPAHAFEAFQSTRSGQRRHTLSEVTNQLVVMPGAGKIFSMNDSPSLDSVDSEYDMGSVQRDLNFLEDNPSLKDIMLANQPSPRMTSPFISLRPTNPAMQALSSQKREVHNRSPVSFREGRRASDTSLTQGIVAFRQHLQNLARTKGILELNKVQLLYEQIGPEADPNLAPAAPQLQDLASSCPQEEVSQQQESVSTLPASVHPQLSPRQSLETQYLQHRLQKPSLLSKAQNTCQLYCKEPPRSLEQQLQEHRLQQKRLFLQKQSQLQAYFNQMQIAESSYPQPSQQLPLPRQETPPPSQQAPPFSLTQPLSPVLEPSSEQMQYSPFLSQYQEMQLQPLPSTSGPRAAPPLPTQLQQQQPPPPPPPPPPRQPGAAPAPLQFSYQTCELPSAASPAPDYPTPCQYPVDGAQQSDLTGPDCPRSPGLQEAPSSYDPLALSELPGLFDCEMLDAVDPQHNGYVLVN
# Biological target: SIK2 (Homo sapiens, UniProt Q9H0K1)
# Experiment: SIK2 Enzymatic Assay High Version 2 (High ATP)
# Format: biochemical
# Conditions: read-out: SIK2 high ATP IC50 (μM) (Test Example 2); enzyme 6 nM, 6 mM ATP and 400 μM HDAC5tide (each 2× final concentration); 30 minutes pre-incubation, 2 hours; ADP-Glo Max luminescence
smiles,measurement,value
CO[C@H]1CNC[C@H]1COc1cnc(C)cc1-c1ccn2nc(NC(=O)C3CC3)cc2c1 (relative stereo),IC50,< 0.000847 µM
